Data on one molecule can be found in ChEMBL document CHEMBL4402532, “Heme Oxygenase-2 (HO-2) as a therapeutic target: Activators and inhibitors” (Eur J Med Chem, 2019).

This assay has as its target T1, Heme oxygenase 1 (Rattus norvegicus, UniProt P06762).
T1 sequence (P06762 whole entry): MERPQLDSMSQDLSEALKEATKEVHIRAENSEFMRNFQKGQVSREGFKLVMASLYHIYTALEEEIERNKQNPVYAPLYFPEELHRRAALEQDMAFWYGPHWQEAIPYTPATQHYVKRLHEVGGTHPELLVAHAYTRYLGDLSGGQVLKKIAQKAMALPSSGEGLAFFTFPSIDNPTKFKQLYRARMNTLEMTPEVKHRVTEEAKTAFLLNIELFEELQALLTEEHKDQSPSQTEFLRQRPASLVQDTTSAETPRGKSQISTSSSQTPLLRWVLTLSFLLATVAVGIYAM
As to the kind of experiment: Inhibition of Sprague-Dawley rat spleen microsome HO-1 preincubated for 10 mins followed by beta-NADPH addition and measured after 15 mins by gas chromatography. Format: microsomes.

`O=C(CCc1ccccc1)Cn1ccnc1` returned an IC50 of 1500 nM.

Broadly, the IC50 is the concentration at which inhibition is half-maximal.
